The target in experiment [1] is IDH1R132H (Homo sapiens (Human), UniProt O75874, R132H). In words: Inhibitory activity against IDH1R132H enzyme (NADPH detection, WST-8). The class given is biochemical. As to conditions: 12 nM, residual NADPH detected with WST-8, read-out: Test Example 1 IDH1 R132H IC50.
The subject of experiment [2] is TF-1/IDH1R132H cells. In words: Inhibitory activity of TF-1/IDH1R132H cell growth (ATPlite). The class given is cell-based, human. As to conditions: Homo sapiens, read-out: Test Example 4 IC50.
The test system of experiment [3] is IDH1R132H-expressing TF-1 cells (TF-1/IDH1R132H). In words: Inhibitory activity of 2-HG production using IDH1R132H-expressing TF-1 cells. It counts as cell-based, human. The note with it: Homo sapiens.
The mark [4] stands for this setting: 2-HG production, IDH1R132H-expressing TF-1 cells, read-out: Test Example 2 IC50.

Sequences of proteins named here, by UniProt entry; tags and fusion partners are left off.
UniProt O75874, whole entry R132H: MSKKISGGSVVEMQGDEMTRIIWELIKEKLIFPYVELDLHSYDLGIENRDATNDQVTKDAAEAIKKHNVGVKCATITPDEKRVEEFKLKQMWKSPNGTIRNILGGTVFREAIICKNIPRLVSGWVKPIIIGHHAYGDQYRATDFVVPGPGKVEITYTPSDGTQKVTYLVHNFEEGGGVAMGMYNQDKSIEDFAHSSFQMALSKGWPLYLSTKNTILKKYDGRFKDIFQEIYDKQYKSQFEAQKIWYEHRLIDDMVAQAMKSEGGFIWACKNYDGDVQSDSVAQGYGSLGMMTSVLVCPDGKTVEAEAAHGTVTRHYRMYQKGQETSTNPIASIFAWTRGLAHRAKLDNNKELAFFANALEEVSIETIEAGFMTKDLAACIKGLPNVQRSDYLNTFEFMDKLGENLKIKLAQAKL

This is an account of results in patent US10040791B2, “Isoxazole derivative as mutant isocitrate dehydrogenase 1 inhibitor” (Daiichi Sankyo Company, Limited, priority 2014, dated 2018).

SMILES strings stand for the structures. Like-named read-outs stand apart in the source and are kept apart here.

Usually IC50 stands for the concentration needed to halve the response being measured. On to `Cc1cc(Cl)cc(C)c1-c1noc(C(C)(C)F)c1C(=O)n1cc(C)c2c(/C=C/C(=O)O)cccc21` [Example 55, (2E)-3-(1-{[3-(4-Chloro-2,6-dimethylphenyl)-5-(2-fluoropropan-2-yl)-1,2-oxazol-4-yl]carbonyl}-3-methyl-1H-indol-4-yl)prop-2-enoic acid], for which the half-maximal inhibitory concentration (IC50) stood at 0.014 µM in experiment [1], 0.13 µM in experiment [2] and 96 nM in experiment [3] (setting [4]).
`C=CC(=O)N1CCN(c2onc(-c3c(Cl)cc(Cl)cc3Cl)c2C(=O)n2ccc3c(/C=C/C(=O)O)cccc32)C2(CC2)C1` [Example 150, (2E)-3-(1-{[5-[7-Acryloyl-4,7-diazaspiro[2.5]oct-4-yl]-3-(2,4,6-trichlorophenyl)-1,2-oxazol-4-yl]carbonyl}-1H-indol-4-yl)prop-2-enoic acid]: the figures for the concentration for half-maximal inhibition (IC50) in experiment [1], in experiment [2] and in experiment [3] (setting [4]) were 0.026 µM, more than 0.9 µM and 214 nM, respectively.
Taken in the same sequence, the figures for `Cc1cn(C(=O)c2c(-c3c(Cl)cc(Cl)cc3Cl)noc2C2(CN(C)C)CCC2)c2cccc(/C=C/C(=O)O)c12` [Example 88, (2E)-3-(1-{[5-{1-[(Dimethylamino)methyl]cyclobutyl}-3-(2,4,6-trichlorophenyl)-1,2-oxazol-4-yl]carbonyl}-3-methyl-1H-indol-4-yl)prop-2-enoic acid] were 0.023 µM, 0.19 µM and 70 nM.
As to `CCc1cn(C(=O)c2c(-c3c(Cl)cc(Cl)cc3Cl)noc2C(C)(C)F)c2cccc(/C=C/C(=O)O)c12` [Example 65, (2E)-3-(3-Ethyl-1-{[5-(2-fluoropropan-2-yl)-3-(2,4,6-trichlorophenyl)-1,2-oxazol-4-yl]carbonyl}-1H-indol-4-yl)prop-2-enoic acid], the IC50 in experiment [1] worked out at 0.022 µM; in experiment [2], 0.263 µM; in experiment [3] (setting [4]), 68 nM.
Turning to `C=CC(=O)N1CCC(c2onc(-c3c(Cl)cc(Cl)cc3Cl)c2C(=O)n2ccc3c(/C=C/C(=O)O)cccc32)CC1` [Example 99], the concentration for half-maximal inhibition (IC50) in experiment [1] was found to be 0.142 µM; in experiment [2] it was 0.287 µM; in experiment [3] (setting [4]), 167 nM.
Take `Cc1cn(C(=O)c2c(-c3c(Cl)cc(Cl)cc3Cl)noc2C(C)(C)F)c2cccc(/C=C/C(=O)O)c12` [Example 21, (2E)-3-(1-{[5-(2-Fluoropropan-2-yl)-3-(2,4,6-trichlorophenyl)-1,2-oxazol-4-yl]carbonyl}-3-methyl-1H-indol-4-yl)prop-2-enoic acid]: the IC50 in experiment [1] was 0.012 µM; in experiment [2], 0.058 µM; in experiment [3] (TF-1, read-out: Test Example 2 IC50 (nM)), 49 nM.
On to `C=CC(=O)N1CCN(c2onc(-c3c(Cl)cccc3Cl)c2C(=O)n2ccc3c(/C=C/C(=O)O)cccc32)[C@H](C)C1` [Example 141, (2E)-3-[1-({5-[(2R)-4-Acryloyl-2-methylpiperazin-1-yl]-3-(2,6-dichlorophenyl)-1,2-oxazol-4-yl}carbonyl)-1H-indol-4-yl]prop-2-enoic acid], for which the 50% inhibitory concentration (IC50) in experiment [1] was 0.16 µM; in experiment [2], more than 0.9 µM; in experiment [3] (setting [4]) it was more than 2000 nM.
Taken in the same sequence, the figures for `Cc1cn(C(=O)c2c(-c3c(F)cc(Cl)cc3Cl)noc2C(C)(C)F)c2cccc(/C=C/C(=O)O)c12` [Example 47, (2E)-3-(1-{[3-(2,4-Dichloro-6-fluorophenyl)-5-(2-fluoropropan-2-yl)-1,2-oxazol-4-yl]carbonyl}-3-methyl-1H-indol-4-yl)prop-2-enoic acid] were 0.013 µM, 0.042 µM and 33 nM.
With `Cn1cc(C(=O)c2c(-c3c(Cl)cc(Cl)cc3Cl)noc2C2(C)CC2)c2cccc(/C=C/C(=O)O)c21` [Example 165], the half-inhibitory concentration (IC50) in experiment [1] worked out at 0.01 µM; in experiment [2] it was 0.211 µM; in experiment [3] (setting [4]), 127 nM.
With `C=CC(=O)N1CCC(c2onc(-c3cc(F)c(Cl)cc3Cl)c2C(=O)n2cc3c4c(cccc42)/C(=C/C(=O)O)CC3)CC1` [Example 128], the IC50 in experiment [1] was 0.038 µM; in experiment [2], more than 0.9 µM; in experiment [3] (setting [4]) it was 40 nM.
In the case of `COC1(c2onc(-c3c(Cl)cc(Cl)cc3Cl)c2C(=O)n2ccc3c(/C=C/C(=O)O)cccc32)CC1` [Example 44, (2E)-3-(1-{[5-(1-Methoxycyclopropyl)-3-(2,4,6-trichlorophenyl)-1,2-oxazol-4-yl]carbonyl}-1H-indol-4-yl)prop-2-enoic acid], the 50% inhibitory concentration (IC50) stood at 0.022 µM in experiment [1], 0.257 µM in experiment [2] and 177 nM in experiment [3] (setting [4]).
Take `C=CC(=O)N1CCC(c2onc(-c3cc(F)c(Cl)cc3Cl)c2C(=O)n2cc(C)c3c(/C=C/C(=O)O)cccc32)CC1` [Example 121]: the concentration for half-maximal inhibition (IC50) is 0.043 µM in experiment [1], more than 0.9 µM in experiment [2] and 74 nM in experiment [3] (setting [4]).
Consider `CNC1(c2onc(-c3c(Cl)cc(Cl)cc3Cl)c2C(=O)n2cc(C)c3c(/C=C/C(=O)O)cccc32)CCC1` [Example 83, (2E)-3-(3-Methyl-1-{[5-[1-(methylamino)cyclobutyl]-3-(2,4,6-trichlorophenyl)-1,2-oxazol-4-yl]carbonyl}-1H-indol-4-yl)prop-2-enoic acid], for which the half-maximal inhibitory concentration (IC50) was determined as 0.011 µM in experiment [1], 0.168 µM in experiment [2] and 43 nM in experiment [3] (setting [4]).
On the same counts, the results for `C#CC(=O)N1CCC(c2onc(-c3c(Cl)cc(Cl)cc3Cl)c2C(=O)n2ccc3c(/C=C/C(=O)O)cccc32)CC1` [Example 100] are 0.037 µM, 0.036 µM and 41 nM.
With `CC(C)(F)c1onc(-c2c(F)cc(Cl)cc2Cl)c1C(=O)n1cc2c3c(cccc31)/C(=C/C(=O)O)CC2` [Example 16, (2E)-[1-{[3-(2,4-Dichloro-6-fluorophenyl)-5-(2-fluoropropan-2-yl)-1,2-oxazol-4-yl]carbonyl}-3,4-dihydrobenzo[cd]indol-5(1H)-ylidene]ethanoic acid], the concentration for half-maximal inhibition (IC50) in experiment [1] is 0.015 µM; in experiment [2] it was 0.143 µM; in experiment [3] (setting [4]) it was 73 nM.
As for `Cc1cn(C(=O)c2c(-c3cc(F)c(Cl)cc3Cl)noc2C(C)(C)F)c2cccc(/C=C/C(=O)O)c12` [Example 63, (2E)-3-(1-{[3-(2,4-Dichloro-5-fluorophenyl)-5-(2-fluoropropan-2-yl)-1,2-oxazol-4-yl]carbonyl}-3-methyl-1H-indol-4-yl)prop-2-enoic acid], the IC50 in experiment [1] was 0.015 µM; in experiment [2], 0.29 µM; in experiment [3] (setting [4]) it was 184 nM.
Taken in the same sequence, the figures for `CC(C)(C)c1onc(-c2c(Cl)cc(Cl)cc2Cl)c1C(=O)n1cc(F)c2c(/C=C/C(=O)O)cccc21` [Example 40, (2E)-3-(1-{[5-(tert-Butyl)-3-(2,4,6-trichlorophenyl)-1,2-oxazol-4-yl]carbonyl}-3-fluoro-1H-indol-4-yl)prop-2-enoic acid] were 0.021 µM, 0.062 µM and 39 nM.
Taken in the same sequence, the figures for `C=CC(=O)N1CCC(c2onc(-c3c(C)cc(C)cc3C)c2C(=O)n2cc(C)c3c(/C=C/C(=O)O)cccc32)CC1` [Example 114] were 0.021 µM, 0.035 µM and 34 nM.
For `C=CC(=O)N1CC2(CC2)N(c2onc(-c3c(F)cccc3Cl)c2C(=O)n2ccc3c(/C=C/C(=O)O)cccc32)C[C@H]1CC` [Example 160, (2E)-3-[1-({5-[(6R)7-Acryloyl-6-ethyl-4,7-diazaspiro[2.5]oct-4-yl]-3-(2-chloro-6-fluorophenyl)-1,2-oxazol-4-yl}carbonyl)-1H-indol-4-yl]prop-2-enoic acid], the IC50 was 0.026 µM in experiment [1], more than 0.9 µM in experiment [2] and more than 400 nM in experiment [3] (setting [4]).
Taken in the same sequence, the figures for `CC(C)(C)c1onc(-c2c(Cl)cc(Cl)cc2Cl)c1C(=O)n1cc(C(F)F)c2c(/C=C/C(=O)O)cccc21` [Example 72, (2E)-3-(1-{[5-(tert-Butyl)-3-(2,4,6-trichlorophenyl)-1,2-oxazol-4-yl]carbonyl}-3-(difluoromethyl)-1H-indol-4-yl)prop-2-enoic acid] were 0.025 µM, 0.077 µM and 52 nM.
For `C=CC(=O)N1CCC(c2onc(-c3ccc(Cl)c(F)c3Cl)c2C(=O)n2cc3c4c(cccc42)/C(=C/C(=O)O)CC3)CC1` [Example 130, (2E)-[1-{[5-(1-Acryloylpiperidin-4-yl)-3-(2,4-dichloro-3-fluorophenyl)-1,2-oxazol-4-yl]carbonyl}-3,4-dihydrobenzo[cd]indol-5(1H)-ylidene]ethanoic acid], the IC50 in experiment [1] was 0.06 µM; in experiment [2], more than 0.9 µM; in experiment [3] (setting [4]), 150 nM.
For the molecule `Cc1cn(C(=O)c2c(-c3c(Cl)cc(Cl)cc3Cl)noc2C2(N(C)C)CCC2)c2cccc(/C=C/C(=O)O)c12` [Example 81, (2E)-3-(1-{[5-[1-(Dimethylamino)cyclobutyl]-3-(2,4,6-trichlorophenyl)-1,2-oxazol-4-yl]carbonyl}-3-methyl-1H-indol-4-yl)prop-2-enoic acid], the concentration for half-maximal inhibition (IC50) is 0.026 µM in experiment [1], 0.03 µM in experiment [2] and 24 nM in experiment [3] (setting [4]).
Regarding `CC(C)(F)c1onc(-c2c(F)cc(Cl)cc2Cl)c1C(=O)n1ccc2c(/C=C/C(=O)O)cccc21` [Example 46, (2E)-3-(1-{[3-(2,4-Dichloro-6-fluorophenyl)-5-(2-fluoropropan-2-yl)-1,2-oxazol-4-yl]carbonyl}-1H-indol-4-yl)prop-2-enoic acid], the IC50 was 0.028 µM in experiment [1], 0.657 µM in experiment [2] and 294 nM in experiment [3] (setting [4]).
As for `COCC1(c2onc(-c3c(Cl)cc(Cl)cc3Cl)c2C(=O)n2cc(C)c3c(/C=C/C(=O)O)cccc32)CCC1` [Example 80, (2E)-3-(1-{[5-[1-(Methoxymethyl)cyclobutyl]-3-(2,4,6-trichlorophenyl)-1,2-oxazol-4-yl]carbonyl}-3-methyl-1H-indol-4-yl)prop-2-enoic acid], the results for the IC50 in experiment [1], in experiment [2] and in experiment [3] (setting [4]) were 0.049 µM, 0.144 µM and 147 nM, respectively.
